In patent US20070100561A1, “Crystals of DPP-IV” (priority 2002, published 2007):
pKd, pKi: −log10 of the molar value.

Sequences of proteins named here, by UniProt entry; tags and fusion partners are left off. Residues count along the entry.
UniProt P27487, 31-766: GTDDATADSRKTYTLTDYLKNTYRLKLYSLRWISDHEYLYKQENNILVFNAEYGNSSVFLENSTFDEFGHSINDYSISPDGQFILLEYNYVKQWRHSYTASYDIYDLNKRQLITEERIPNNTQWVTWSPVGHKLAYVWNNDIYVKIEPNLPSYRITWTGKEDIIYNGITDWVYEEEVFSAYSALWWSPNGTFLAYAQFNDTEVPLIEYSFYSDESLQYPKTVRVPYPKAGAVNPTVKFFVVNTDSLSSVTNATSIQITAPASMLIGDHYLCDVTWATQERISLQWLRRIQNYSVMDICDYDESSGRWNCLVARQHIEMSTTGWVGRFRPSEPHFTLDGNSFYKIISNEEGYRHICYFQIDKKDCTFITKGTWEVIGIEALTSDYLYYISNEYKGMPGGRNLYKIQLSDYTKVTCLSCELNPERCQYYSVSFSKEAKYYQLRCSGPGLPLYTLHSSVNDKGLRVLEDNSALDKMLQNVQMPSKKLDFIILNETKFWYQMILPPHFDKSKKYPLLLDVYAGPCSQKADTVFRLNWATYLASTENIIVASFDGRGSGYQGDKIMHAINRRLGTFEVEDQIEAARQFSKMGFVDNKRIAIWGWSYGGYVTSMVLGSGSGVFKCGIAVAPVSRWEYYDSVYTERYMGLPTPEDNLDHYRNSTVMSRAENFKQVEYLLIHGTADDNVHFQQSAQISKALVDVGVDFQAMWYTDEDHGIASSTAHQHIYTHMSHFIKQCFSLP

Tests used:
[1] = biological target: sDPP-IV (soluble extracellular domain of human dipeptidyl peptidase IV) (Homo sapiens, UniProt P27487); test: DPP-IV activity assay, fluorescence of products from Ala-Pro-7-amido-4-trifluoromethylcoumarin
[2] = biological target: DPP-IV (Homo sapiens, UniProt P27487); test: Biacore surface plasmon resonance binding to immobilized DPP-IV

pKi [1]: 5.33
pKd [2]: 5.42
Structure (SMILES): CC[C@H](C)[C@H](N)C(=O)N1CCC[C@H]1C(=O)N[C@H](C(=O)O)[C@@H](C)CC [Ile-Pro-Ile, reference compound]
